The values that follow come from patent US10118903B2, “Aminotriazole-based KDM1A inhibitors as epigenetic modulators” (MUSC FOUNDATION FOR RESEARCH DEVELOPMENT, priority 2014, dated 2018).

The assay has as its target T1, human recombinant LSD1 (Homo sapiens, UniProt O60341).
T1 construct: purchased Cayman Chemical Item #700120
The experiment in a line: LSD1 inhibitor screening assay (Cayman Chemical kit, fluorometric). As to conditions: 10 μM compound; Chembridge analogues table. Format: biochemical.

As to “Verlindamycin tetrahydrochloride [Compound 2d, reference compound]”, the “% inhibition of recombinant LSD1 at 10 μM” value is 62.6%.
